{
  "source": "patent US9079913B2",
  "about": "“Spiro-oxindole MDM2 antagonists” (The Regents of the University of Michigan, priority 2009, dated 2015)",
  "settings": "mouse, in vivo",
  "data": [
    {"substance": "MI-219", "values": [
      {"measurement": "oral bioavailability in mice (in words)", "result": "orally bioavailable"}
    ]}
  ]
}
